Target: Peptidyl-prolyl cis-trans isomerase A (Homo sapiens, UniProt P62937)
Assay: Immunosuppressive activity was measured by inhibition of the IL-2 production in Jurkat cells.
Format: functional, cell-based

The chains behind the UniProt entries cited, without tags or fusion partners.
UniProt P62937, whole entry: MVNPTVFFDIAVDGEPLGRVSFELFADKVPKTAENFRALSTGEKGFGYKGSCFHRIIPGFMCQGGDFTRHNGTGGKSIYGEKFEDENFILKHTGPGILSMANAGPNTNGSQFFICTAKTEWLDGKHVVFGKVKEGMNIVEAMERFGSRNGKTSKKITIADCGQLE

SMILES: C/C=C/C[C@@H](C)[C@@H](O)[C@H]1C(=O)N[C@@H](CC)C(=O)N(C)[C@H](SCCN(C)C)C(=O)N(C)[C@@H](CC(C)(C)O)C(=O)N[C@@H](C(C)C)C(=O)N(C)[C@@H](CC(C)C)C(=O)N[C@@H](C)C(=O)N[C@H](C)C(=O)N(C)[C@@H](CC(C)C)C(=O)N(C)[C@@H](CC(C)C)C(=O)N(C)[C@@H](C(C)C)C(=O)N1C [SCY 635]
- IC50: 1.55 µM

From ChEMBL document CHEMBL1136490, “Synthesis of non-immunosuppressive cyclophilin-Binding cyclosporin A derivatives as potential anti-HIV-1 drugs” (Bioorg Med Chem Lett, 2003)
